# Measurements as given in patent US20120244567A1, “HUMAN EMBRYONIC STEM CELLS FOR HIGH THROUGHOUT DRUG SCREENING” (BUCK INSTITUTE FOR RESEARCH ON AGING, priority 2009, published 2012).
# Tested on: NSCs
# Test: Effect of solTNFα on NSC survival
# Assay type: cell-based, human
# Details: for cell death between treated and untreated cells: 0.1 mM, 1 mM and 10 mM, 48 hours
# Protocol: For measuring the effect of TNFc on NSCs, 16 NSCs were passaged onto fibronectin-coated 4-well plates in Neurobasal media supplemented with 1×B27, 2 mM L-glutamine and 10 ng/ml of both bFGF and LIF growth factors. Cells were recovered for 12 hours at 37° and then either left untreated or treated with solTNFα at the concentrations indicated.
# We therefore examined whether cell death in NSCs upon amiodarone HCl exposure could be due to the activation of soluble TNFα signaling pathways. Three dosages of soluble TNFα (0.1 mM, 1 mM and 10 mM) were tested in NSC culture for 48 hours.
substance,measurement,setting,value
"solTNFα: soluble biologically active form of TNFα, a potent pro-inflammatory cytokine",cell death relative to untreated cultures,"0.1 nM, 1 nM and 10 nM, up to 24 hours",No increase in cell death
same,cell death between treated and untreated cells,,no increase in cell death
same,cell death between treated and untreated cells,listed as soluble TNFα,did not observe differences in cell death
